Experimental data as given in US6930118B2, “3-Oxadiazol-5-yl-1-aminoalkyl-1h-indole derivatives” (Amrad Operations Pty. Ltd., priority 2001, dated 2005).

Chains of the proteins cited; added tags and fusions are not shown.
UniProt P20272, whole entry: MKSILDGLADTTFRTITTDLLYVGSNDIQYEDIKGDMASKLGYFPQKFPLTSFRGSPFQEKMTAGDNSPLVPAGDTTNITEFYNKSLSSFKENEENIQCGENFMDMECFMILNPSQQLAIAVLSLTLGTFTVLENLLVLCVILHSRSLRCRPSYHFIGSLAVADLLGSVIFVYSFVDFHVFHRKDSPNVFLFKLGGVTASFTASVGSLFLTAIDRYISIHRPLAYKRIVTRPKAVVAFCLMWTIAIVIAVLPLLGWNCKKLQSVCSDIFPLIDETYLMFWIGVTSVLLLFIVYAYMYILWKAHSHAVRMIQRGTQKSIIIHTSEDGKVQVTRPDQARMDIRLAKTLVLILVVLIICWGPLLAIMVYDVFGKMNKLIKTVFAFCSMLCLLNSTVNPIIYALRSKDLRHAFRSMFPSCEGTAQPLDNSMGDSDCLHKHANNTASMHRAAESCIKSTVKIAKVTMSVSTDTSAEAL

Legend:
CB2 receptor = molecular target: T1, CB2 receptor (Rattus norvegicus, UniProt Q9QZN9); experiment: Radioligand binding assay, rat spleen membranes
T1 sequence (Q9QZN9 1-343 limits assumed): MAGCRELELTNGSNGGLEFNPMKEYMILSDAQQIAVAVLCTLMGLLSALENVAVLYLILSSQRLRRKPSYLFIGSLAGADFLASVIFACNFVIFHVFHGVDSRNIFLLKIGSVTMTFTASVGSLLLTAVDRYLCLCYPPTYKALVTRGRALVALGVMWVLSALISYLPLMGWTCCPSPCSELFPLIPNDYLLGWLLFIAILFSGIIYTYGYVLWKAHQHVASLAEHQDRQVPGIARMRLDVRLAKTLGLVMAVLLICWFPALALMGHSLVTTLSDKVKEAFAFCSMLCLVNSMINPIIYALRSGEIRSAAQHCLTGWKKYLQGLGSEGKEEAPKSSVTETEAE
Experimental: (§1) The affinity of compounds at cannabinoid receptors is routinely assessed using ligand binding assays known to those skilled in the art. Radioligand binding assays were conducted using rat cerebellum or rat spleen. The cerebellum of the rat is known to express predominantly, if not exclusively, the CB1 receptor subtype (20,21). Thus, binding constants obtained from these studies are characterised by a single affinity value, as only one receptor type is labelled. […] In contrast, biphasic binding curves in the spleen characterised by two affinity constants represent the profile of compounds showing selectivity for one receptor subtype over another. […]
(§2) Ligand binding assays were performed in polypropylene tubes in a total volume of 1 ml containing Tris-HCl buffer, a final concentration of 1 mg/ml BSA, and varying concentrations of drugs. […] Vials were left to stand overnight before the radioactivity was determined using a Model 1409 DSA Liquid Scintillation counter (EG&E Wallac, Gaithersburg, Md., U.S.A.).
(§3) The resulting radioligand binding curves were analyzed by nonlinear regression using the program PRISM 3.0 (GraphPad Software, San Diego, Calif.) in order to derive ligand affinity estimates for the cannabinoid receptor(s).

CB1 receptor = molecular target: T2, CB1 receptor (Rattus norvegicus, UniProt P20272); experiment: Radioligand binding assay, rat cerebellum membranes
T2 construct: the cerebellum was dissected away from the rest of the brain, weighed and homogenised; from tissue; host or cells: Sprague Dawley rat cerebellum membranes
Experimental: as §1, §2, §3

Work on CCCCC/C=C\C/C=C\C/C=C\C/C=C\CCCC(=O)NCCO [Anandamide, reference compound] yielded a pIC50 (CB2 receptor) of over 6.00 and a pIC50 (CB1 receptor) of 6.00.

pIC50: −log10 of the molar value.
